Test system: O=P(O)(O)O[C@H]1[C@H](OP(=O)(O)O)[C@@H](OP(=O)(O)O)[C@H](OP(=O)(O)O)[C@@H](OP(=O)(O)O)[C@H]1OP(=O)(O)O
Experiment: purified protein, by the assay type
Conditions: other: YeAPPA wild, sodium phytate 0.0625-1.5 mmol/L, optimal pH 5, 45° C.

wild phytase YeAPPA, SEQ ID NO.1 (Yersinia enterocolitica)
Km: 0.19 mM

Source: patent US11155793B2, “Phytase variants YeAPPA having improved gastric protein resistance and acid resistance, and increased catalytic efficiency” (priority 2017, dated 2021)
